Experimental data published in PMC3984012 (Journal of Acquired Immune Deficiency Syndromes (1999), 2014).
Like-named read-outs stand apart in the source and are kept apart here.

Legend:
[1] = Safety and tolerability; type: in vivo, human; conditions: healthy volunteers
[2] = MVC dosed in combination with saquinavir/ritonavir (SQV/r); cited from earlier work
[3] = single dose MVC 300 mg, cited from earlier work
[4] = type: in vivo, human
[5] = mild (Child-Pugh class A) hepatic impairment
[6] = moderate (Child-Pugh class B) hepatic impairment

Maraviroc [MVC]
Postural hypotension or dizziness ([1]; MVC coadministered with BOC or TVR): No postural hypotension or dizziness was reported
AE incidence ([1]; during treatment): 43%
Increase in MVC exposures [2]: 9.77 fold
Cmax greater relative to subjects with normal hepatic function [3, 5]: 11%
Geometric mean AUClast greater relative to subjects with normal hepatic function [3, 5]: 25%
Cmax greater relative to subjects with normal hepatic function [3, 6]: 32%
Geometric mean AUClast greater relative to subjects with normal hepatic function [3, 6]: 46%
MVC C12, geometric mean (%CV) ([4]; MVC 150 mg BID + BOC 800 mg TID, day 10, N = 14): 66.1 ng/mL
MVC C12, geometric mean (%CV) ([4]; MVC 150 mg BID + TVR 750 mg TID, day 10, N = 13): 235.5 ng/mL
MVC C12, geometric mean (%CV) ([4]; MVC 150 mg BID alone, day 5, N = 14): 23.8 ng/mL
MVC average concentration (Cavg) ([4]; MVC 150 mg BID in the presence of BOC): 151 ng/mL
MVC average concentration (Cavg) ([4]; MVC 150 mg BID in the presence of TVR): 474 ng/mL
MVC Tmax, median (range) ([4]; MVC administered alone): 2.0 (range, 1.0–6.0) hours
MVC Tmax, median (range) ([4]; MVC administered with BOC): 2.0 (range, 0.5–3.0) hours
MVC Tmax, median (range) ([4]; MVC given with TVR): 3.0 (range, 2.0–4.0) hours
MVC C12 fold higher ([4]; MVC plus BOC compared with MVC alone): approximately 3 fold
MVC C12 fold higher ([4]; MVC plus TVR compared with MVC alone): approximately 10 fold
Increase of MVC plasma exposure (based on AUC12 and Cmax) ([4]; in the presence of TVR versus MVC alone): 8- to 9 fold
